Patent publication US20250188171A1, “COMBINATION THERAPY INCLUDING ANTIBODIES THAT BIND EGFR AND CMET” (MERUS N.V., priority 2022, published 2025)

Tests used:
[1] = test system: MKN-45 (EGFR-low, cMET-amplified); assay: ADCC assay (Promega ADCC Bioassay kit), MKN-45 target cells; type: cell-based; conditions: 6 hours, luciferase
Method: (§1) The ADCC activity of the 24 cMetxEGFR bispecifics was tested to the tumor cell lines N87 (EGFR-high, cMET-low) and MKN-45 (EGFR-low, cMET-amplified). The ADCC assay was performed using the Promega ADCC Bioassay kit in 384-well plate format. Antibodies were tested in duplicate at 9 different concentrations in semi-log serial dilutions ranging from 10 µg/ml to 1 ng/ml.
(§2) Antibodies or assay medium control (no IgG) were incubated for 6 hours of induction at 37° C. with ADCC effector cells, and target cells (N87 or MKN-45). Luciferase activity was quantified using Bio-Glo luciferase reagent.

[2] = test system: N87 (EGFR-high, cMET-low); assay: ADCC assay (Promega ADCC Bioassay kit), N87 target cells; type: cell-based; conditions: 6 hours, luciferase
Method: as §1, §2

cetuximab: reference antibody for the EGFR Fab panel; monoclonal antibody that inhibits EGFR
ADCC activity [1]: dose-dependent ADCC activity | ADCC activity [2]: dose-dependent ADCC activity
